The record followed here is patent US20160287666A1 (priority 2015, published 2016).

Sequences of proteins named here, by UniProt entry; tags and fusion partners are left off.
UniProt Q9UQD0, whole entry: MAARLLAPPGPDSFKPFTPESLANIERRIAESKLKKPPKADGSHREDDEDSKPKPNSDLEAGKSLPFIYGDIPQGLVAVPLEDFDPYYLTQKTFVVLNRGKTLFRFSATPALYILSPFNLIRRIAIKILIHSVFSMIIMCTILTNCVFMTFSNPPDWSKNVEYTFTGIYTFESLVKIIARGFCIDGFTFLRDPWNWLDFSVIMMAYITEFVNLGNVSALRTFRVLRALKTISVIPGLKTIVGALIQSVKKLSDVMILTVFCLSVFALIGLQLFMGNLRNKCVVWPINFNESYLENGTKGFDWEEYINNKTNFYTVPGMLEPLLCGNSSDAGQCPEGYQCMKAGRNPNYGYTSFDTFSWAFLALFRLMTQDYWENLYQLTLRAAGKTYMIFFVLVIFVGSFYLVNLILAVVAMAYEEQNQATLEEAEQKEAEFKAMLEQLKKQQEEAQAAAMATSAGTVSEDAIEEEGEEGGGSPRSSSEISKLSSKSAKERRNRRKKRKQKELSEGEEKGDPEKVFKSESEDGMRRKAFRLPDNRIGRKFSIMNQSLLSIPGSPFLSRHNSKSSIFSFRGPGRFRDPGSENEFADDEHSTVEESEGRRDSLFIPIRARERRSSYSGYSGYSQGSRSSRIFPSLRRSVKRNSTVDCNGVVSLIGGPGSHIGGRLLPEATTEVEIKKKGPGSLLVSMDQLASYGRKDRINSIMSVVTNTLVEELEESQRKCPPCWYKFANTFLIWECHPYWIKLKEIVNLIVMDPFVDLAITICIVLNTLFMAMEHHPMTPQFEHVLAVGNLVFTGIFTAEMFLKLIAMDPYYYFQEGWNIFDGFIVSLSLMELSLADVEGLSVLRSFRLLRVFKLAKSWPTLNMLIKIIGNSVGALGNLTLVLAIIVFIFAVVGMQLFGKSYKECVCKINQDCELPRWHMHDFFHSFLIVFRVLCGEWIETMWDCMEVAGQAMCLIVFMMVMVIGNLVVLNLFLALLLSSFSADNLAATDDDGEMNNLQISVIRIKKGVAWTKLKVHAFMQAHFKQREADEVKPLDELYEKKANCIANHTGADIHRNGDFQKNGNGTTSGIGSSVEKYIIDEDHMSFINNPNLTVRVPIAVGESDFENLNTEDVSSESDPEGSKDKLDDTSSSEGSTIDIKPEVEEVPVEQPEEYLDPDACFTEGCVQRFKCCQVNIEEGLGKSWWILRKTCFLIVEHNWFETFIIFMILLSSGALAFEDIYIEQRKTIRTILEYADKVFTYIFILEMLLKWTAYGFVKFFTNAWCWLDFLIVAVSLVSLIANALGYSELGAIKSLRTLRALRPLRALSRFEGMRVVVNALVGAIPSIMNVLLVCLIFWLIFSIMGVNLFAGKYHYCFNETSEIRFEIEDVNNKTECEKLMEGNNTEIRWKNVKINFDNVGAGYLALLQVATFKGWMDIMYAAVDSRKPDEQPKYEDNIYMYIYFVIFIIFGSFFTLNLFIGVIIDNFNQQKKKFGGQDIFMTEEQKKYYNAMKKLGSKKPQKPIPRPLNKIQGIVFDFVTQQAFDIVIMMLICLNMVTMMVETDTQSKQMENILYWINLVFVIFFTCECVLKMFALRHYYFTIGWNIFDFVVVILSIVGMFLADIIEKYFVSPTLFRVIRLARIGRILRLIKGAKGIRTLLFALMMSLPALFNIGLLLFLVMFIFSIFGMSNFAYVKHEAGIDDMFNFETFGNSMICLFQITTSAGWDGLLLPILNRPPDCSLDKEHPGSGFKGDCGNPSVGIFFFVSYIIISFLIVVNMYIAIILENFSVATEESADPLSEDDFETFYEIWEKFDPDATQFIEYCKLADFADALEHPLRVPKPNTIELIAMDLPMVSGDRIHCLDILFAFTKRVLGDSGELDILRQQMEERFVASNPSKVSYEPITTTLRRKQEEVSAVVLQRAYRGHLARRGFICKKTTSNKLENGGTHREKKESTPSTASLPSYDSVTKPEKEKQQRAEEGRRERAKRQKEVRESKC

For the assay, the target named is human Nav1.6 (Homo sapiens, UniProt Q9UQD0). The format is cell-based.

Regarding “GPQCQKWMQTCDRERKCCEGFVCTLWCRKKLW-COOH [NV1D3034]”, the “selectivity towards Nav1.7 compared to recombinant Protoxin-II” value is reported as “improved selectivity”.
